Values quoted from earlier work in patent publication US20260356887A1, “NOVEL MYD88 INHIBITOR FOR TREATMENT OF AUTOIMMUNE DISEASES AND USES THEREOF” (S&K THERAPEUTICS, priority 2023, published 2026).

Test system: RAW 264.7 cells (LPS-induced activation of TLR4)
Conditions: cited: Masaud Shah, et al., Biomaterials 2020; cited from earlier work

## CC[C@H](C)[C@H](NC(=O)[C@H](CCCCN)NC(=O)[C@@H](NC(=O)[C@H](CCC(N)=O)NC(=O)[C@@H](N)CCCNC(=N)N)[C@@H](C)CC)C(=O)N[C@@H](Cc1c[nH]c2ccccc12)C(=O)N[C@@H](Cc1ccccc1)C(=O)N[C@@H](CCC(N)=O)C(=O)N[C@@H](CC(N)=O)C(=O)N[C@@H](CCCNC(=N)N)C(=O)N[C@@H](CCCNC(=N)N)C(=O)N[C@@H](CCSC)C(=O)N[C@@H](CCCCN)C(=O)N[C@@H](Cc1c[nH]c2ccccc12)C(=O)N[C@@H](CCCCN)C(=O)N[C@@H](CCCCN)C(=O)O [CPP]
  LPS-induced TNF-α secretion (CPP alone): no inhibitory effect
